These results are taken from US20190315834A1 (KAHR MEDICAL, published 2019).

Chains of the proteins cited; added tags and fusions are not shown. Lines headed by an entry give the natural chain unless they say otherwise; changes in a name come on top. Residues count along the entry.
UniProt Q08722, 19-139: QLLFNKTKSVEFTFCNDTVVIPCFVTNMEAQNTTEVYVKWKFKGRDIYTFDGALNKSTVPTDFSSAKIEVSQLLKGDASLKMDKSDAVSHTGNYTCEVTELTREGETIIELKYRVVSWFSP

For this assay, the target named is T1, CD47:Fc (Sino Biological, cat #12283-H02H) (UniProt Q08722, in part).
T1 construct: Bought reagent, loaded on the BLI biosensor; not shown: Fc portion of the bought reagent
Description: bio-layer interferometry (Blitz), biosensor pre-loaded with CD47:Fc. As for the experimental part: The binding of the SIRPα domain of the molecule to CD47 and the binding of the CD70 domain of the molecule to CD27 was determined by the bio-layer interferometry Blitz® assay. Materials—His-tagged SIRPα-CD70 protein (SEQ ID NO: 5) produced as described in Experiment 1A hereinabove; CD47:FC (Sino Biological, cat #12283-H02H), PD1-CD70 protein (SEQ ID NO: 6, as a negative control),
Methods and results—The biosensor was pre-loaded with CD47:Fc, which led to a stable association plateau (FIG. 3). Upon subsequent incubation with His-tagged SIRPα-CD70 protein (SEQ ID NO: 5) a rapid association of the His-tagged SIRPα-CD70 protein (SEQ ID NO: 5) to CD47:Fc was detected (FIG. 3, upper line). […] Upon reaching a stable association plateau, the biosensor was washed with medium to determine the off-rate of the His-tagged SIRPα-CD70 protein from CD47:Fc.

B1: PD1-CD70 protein (SEQ ID NO: 6) (other)
chain: HHHHHHPGWFLDSPDRPWNPPTFSPALLVVTEGDNATFTCSFSNTSESFVLNWYRMSPSNQTDKLAAFPEDRSQPGQDCRFRVTQLPNGRDFHMSVVRARRNDSGTYLCGAISLAPKAQIKESLRAELRVTERRAEVPTAHPSPSPRPAGQFQTLVGQRFAQAQQQLPLESLGWDVAELQLNHTGPQQDPRLYWQGGPALGRSFLHGPELDKGQLRIHRDGIYMVHIQVTLAICSSTTASRHHPTTLAVGICSPASRSISLLRLSFHQGCTIASQRLTPLARGDTLCTNLTGTLLPSRNTDETFFGVQWVRP
notes: Negative control fusion protein; also called control protein PD1-CD70
Turning to B1, the binding result is recorded as “no binding”.
